Kinetic_solubility data for 1 compound are collected here from ChEMBL document CHEMBL6087456 (J Med Chem, 2025).

A short description of this data set: Kinetic solubility of compound at pH 6.5 measured after 30 mins by nephelometry. The settings on record: buffer, pH 6.5, 0.5 h. Format: physicochemical.

In turn, `Cc1nn(C2CC2)c(=O)c2nn(C)c(Cc3ccc(C(F)(F)F)c(C#N)c3)c12` showed a Kinetic_solubility of under 15 µM.
